Reference: patent US20240342117A1, “Inhalable Epinephrine Formulation” (De Motu Cordis Pty Ltd, priority 2022, published 2024)
Read-outs that look alike come from different tables or passages of the source.

Assays:
[1] = not given; remark: listed apart in the source

Q: Which Dv50 (Sample: Drum 1 bottom) does the source give for CNC[C@H](O)c1ccc(O)c(O)c1 [160916M2, Epinephrine bitartrate] here?
A: 1.77 μm

Q: What about the Dv90 (Sample: Drum 1 bottom) of the same compound?
A: 3.65 μm

Q: And the “Volume below 5 μm” value (Sample: Drum 1 bottom)?
A: 98.37%

Q: What about the Dv50 (Sample: Drum 1 top) of the same compound?
A: 1.83 μm

Q: And the Dv90 (Sample: Drum 1 top)?
A: 3.71 μm

Q: What about the “Volume below 5 μm” value (Sample: Drum 1 top) of the same compound?
A: 98.27%

Q: And the Dv50 (Sample: Final Sample)?
A: 1.79 μm

Q: And the Dv90 (Sample: Final Sample)?
A: 3.65 μm

Q: And the “Volume below 5 μm” value (Sample: Final Sample)?
A: 98.42%

Q: What about the Dv50 (Sample: Trial 1) of the same compound?
A: 1.83 μm

Q: What about the Dv90 (Sample: Trial 1) of the same compound?
A: 3.76 μm

Q: And the “Volume below 5 μm” value (Sample: Trial 1)?
A: 97.77%

Q: For CNC[C@H](O)c1ccc(O)c(O)c1 [E80-18002M1, Epinephrine bitartrate], which Dv50 (Sample: Drum 1) is on record?
A: 1.65 μm

Q: And the Dv90 (Sample: Drum 1)?
A: 3.55 μm

Q: What about the “Volume below 5 μm” value (Sample: Drum 1) of the same compound?
A: 98.39%

Q: And the Dv50 (Sample: Trial 1)?
A: 1.62 μm

Q: And the Dv90 (Sample: Trial 1)?
A: 3.23 μm

Q: What about the “Volume below 5 μm” value (Sample: Trial 1) of the same compound?
A: 99.52%

Q: With CNC[C@H](O)c1ccc(O)c(O)c1 [E80-18002, Epinephrine bitartrate] as the compound, how does the Dv50 (Sample: Unmicronised) read?
A: 37.50 μm

Q: What about the Dv90 (Sample: Unmicronised) of the same compound?
A: 193.89 μm

Q: And the “Volume below 5 μm” value (Sample: Unmicronised)?
A: 8.18%

Q: With CNC[C@H](O)c1ccc(O)c(O)c1 [micronized epinephrine bitartrate, epinephrine bitartrate] as the compound, how does the Dv10 ([1]; 4 weeks (2-8° C.)) read?
A: 3.49 μm

Q: What about the Dv50 ([1]; 4 weeks (2-8° C.)) of the same compound?
A: 248 μm

Q: What about the Dv90 ([1]; 4 weeks (2-8° C.)) of the same compound?
A: 847 μm

Q: And the “Volume below 10 μm” value ([1]; 4 weeks (2-8° C.))?
A: 22.62%

Q: And the Dv10 ([1]; 4 weeks (40° C./75% RH))?
A: 2.40 μm

Q: And the Dv50 ([1]; 4 weeks (40° C./75% RH))?
A: 294 μm

Q: And the Dv90 ([1]; 4 weeks (40° C./75% RH))?
A: 1200 μm

Q: What about the “Volume below 10 μm” value ([1]; 4 weeks (40° C./75% RH)) of the same compound?
A: 30.53%

Q: And the Dv10 ([1]; Initial)?
A: 0.310 μm

Q: And the Dv50 ([1]; Initial)?
A: 1.73 μm

Q: And the Dv90 ([1]; Initial)?
A: 57.8 μm

Q: And the “Volume below 10 μm” value ([1]; Initial)?
A: 79.94%

Q: For CNC[C@H](O)c1ccc(O)c(O)c1 [E80-18002M2, Epinephrine bitartrate], which Dv50 (Sample: Drum 1) is on record?
A: 1.52 μm

Q: What about the Dv90 (Sample: Drum 1) of the same compound?
A: 3.25 μm

Q: And the “Volume below 5 μm” value (Sample: Drum 1)?
A: 99.20%

Q: And the Dv50 (Sample: Trial 1)?
A: 1.57 μm

Q: What about the Dv90 (Sample: Trial 1) of the same compound?
A: 3.38 μm

Q: And the “Volume below 5 μm” value (Sample: Trial 1)?
A: 98.91%
